PubChem BioAssay AID602281 (The Scripps Research Institute Molecular Screening Center, 2012)
The entries are a selection whose mix differs from that of the whole data set. Calls of active or inactive are those of the source.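 How the source made its calls: active means inhibition above the mean inhibition across every tested compound plus 3 SD (cut at about 22% in these data); inactive means the rest.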

Chains of the proteins cited; added tags and fusions are not shown.
UniProt Q00G26, whole entry, looked up: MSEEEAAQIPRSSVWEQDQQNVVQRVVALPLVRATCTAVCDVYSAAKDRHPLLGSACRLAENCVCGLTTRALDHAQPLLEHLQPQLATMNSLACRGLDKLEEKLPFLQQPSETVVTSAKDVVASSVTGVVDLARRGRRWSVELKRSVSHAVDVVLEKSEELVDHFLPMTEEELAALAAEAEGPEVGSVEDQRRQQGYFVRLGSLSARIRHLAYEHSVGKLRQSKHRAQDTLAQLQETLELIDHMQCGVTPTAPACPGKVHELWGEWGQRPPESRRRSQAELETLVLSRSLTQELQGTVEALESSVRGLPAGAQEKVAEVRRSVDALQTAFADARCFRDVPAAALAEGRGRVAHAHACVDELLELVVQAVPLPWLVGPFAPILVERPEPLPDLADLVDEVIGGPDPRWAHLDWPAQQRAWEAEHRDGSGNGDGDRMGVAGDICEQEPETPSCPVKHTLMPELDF
UniProt Q8WTS1, whole entry, looked up: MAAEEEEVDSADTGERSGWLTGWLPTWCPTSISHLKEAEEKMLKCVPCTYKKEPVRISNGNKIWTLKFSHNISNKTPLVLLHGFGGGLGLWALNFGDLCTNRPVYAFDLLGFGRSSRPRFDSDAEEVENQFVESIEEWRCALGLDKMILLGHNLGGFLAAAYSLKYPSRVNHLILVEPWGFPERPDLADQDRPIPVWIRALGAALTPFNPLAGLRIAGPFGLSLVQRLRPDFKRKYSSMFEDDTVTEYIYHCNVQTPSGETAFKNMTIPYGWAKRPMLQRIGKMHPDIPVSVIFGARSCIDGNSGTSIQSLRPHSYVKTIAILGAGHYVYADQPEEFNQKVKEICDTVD

biological target: Perilipin-5 (Homo sapiens) + 1-acylglycerol-3-phosphate O-acyltransferase ABHD5 (Homo sapiens) (UniProt Q00G26+Q8WTS1); experiment: blockers of ABHD5 binding to perilipin-5 – cell lysate, split luciferase complementation, luminescence, primary screen (AID 602281);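 further: 0% = DMSO only wells and the 100% control is not disclosed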; conditions: Split G. princeps luciferase complementation, 4 h, at 4 µM, hits give high values

| Structure (SMILES) | inhibition |
| --- | --- |
| CCC(=O)N(c1ccccc1)C1(COC)CCN(CCc2cccs2)CC1 | active: 46% |
| CCC(=O)N(c1ccccc1)C1(COC)CCN(CCn2nnn(CC)c2=O)CC1 | inactive: 2.19% |
